Protein sequences, listed by entry. Tags and fused reporters are not part of them. Lines headed by an entry give the natural chain unless they say otherwise; changes in a name come on top.
UniProt P22303: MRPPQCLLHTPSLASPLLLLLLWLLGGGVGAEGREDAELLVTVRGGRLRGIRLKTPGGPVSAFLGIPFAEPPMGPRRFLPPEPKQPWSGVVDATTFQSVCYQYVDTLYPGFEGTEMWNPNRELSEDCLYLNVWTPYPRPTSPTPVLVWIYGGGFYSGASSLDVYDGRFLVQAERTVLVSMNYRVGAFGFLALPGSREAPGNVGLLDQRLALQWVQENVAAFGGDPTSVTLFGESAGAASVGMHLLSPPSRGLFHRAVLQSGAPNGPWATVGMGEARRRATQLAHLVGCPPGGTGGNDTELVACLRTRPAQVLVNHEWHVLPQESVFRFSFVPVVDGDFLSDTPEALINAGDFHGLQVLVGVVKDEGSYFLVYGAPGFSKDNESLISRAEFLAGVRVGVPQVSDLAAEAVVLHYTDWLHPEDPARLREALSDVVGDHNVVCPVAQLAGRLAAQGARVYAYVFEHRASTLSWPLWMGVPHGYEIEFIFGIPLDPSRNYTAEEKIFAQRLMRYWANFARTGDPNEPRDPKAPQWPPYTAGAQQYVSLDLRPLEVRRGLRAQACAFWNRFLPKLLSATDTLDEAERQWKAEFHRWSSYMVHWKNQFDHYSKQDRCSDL

According to BindingDB's records for doi:10.1021/bi300955k (Dalhousie University, 2012):

Biological target: Acetylcholinesterase (Homo sapiens, UniProt P22303)
Experiment: Inhibition Assay
Excerpt: Inhibition constant using AChE or BuChE.

SMILES: CC[N+](C)(CC)CCCn1c2cc(=N)ccc-2c2ccc(N)cc2c1-c1ccccc1 [Propidium Iodide, 2]
- Ki: 9.73 µM
